Data on seven molecules can be found in PMC3045619 (Nucleic Acids Research, 2010).

The chains are these.
T1: single-stranded DNA-binding protein (SSB) of E. coli, wild-type (E. coli, UniProt P0AGE0 1-178)
T1 sequence: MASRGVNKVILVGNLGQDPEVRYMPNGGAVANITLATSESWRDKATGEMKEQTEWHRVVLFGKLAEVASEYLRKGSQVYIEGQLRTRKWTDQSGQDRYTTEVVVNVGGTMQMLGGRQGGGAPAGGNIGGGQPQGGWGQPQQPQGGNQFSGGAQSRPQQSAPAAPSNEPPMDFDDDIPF

B1: χ subunit of DNA polymerase III of E. coli, wild-type (natural protein)
chain: MKNATFYLLDNDTTVDGLSAVEQLVCEIAAERWRSGKRVLIACEDEKQAYRLDEALWARPAESFVPHNLAGEGPRGGAPVEIAWPQKRSSSRRDILISLRTSFADFATAFTEVVDFVPYEDSLKQLARERYKAYRVAGFNLNTATWK
B2: χ K132A (natural protein)
chain: MKNATFYLLDNDTTVDGLSAVEQLVCEIAAERWRSGKRVLIACEDEKQAYRLDEALWARPAESFVPHNLAGEGPRGGAPVEIAWPQKRSSSRRDILISLRTSFADFATAFTEVVDFVPYEDSLKQLARERYAAYRVAGFNLNTATWK
B3: χ K132M (natural protein)
chain: MKNATFYLLDNDTTVDGLSAVEQLVCEIAAERWRSGKRVLIACEDEKQAYRLDEALWARPAESFVPHNLAGEGPRGGAPVEIAWPQKRSSSRRDILISLRTSFADFATAFTEVVDFVPYEDSLKQLARERYMAYRVAGFNLNTATWK
B4: χ Y119A (natural protein)
chain: MKNATFYLLDNDTTVDGLSAVEQLVCEIAAERWRSGKRVLIACEDEKQAYRLDEALWARPAESFVPHNLAGEGPRGGAPVEIAWPQKRSSSRRDILISLRTSFADFATAFTEVVDFVPAEDSLKQLARERYKAYRVAGFNLNTATWK
B5: χ K124A (natural protein)
chain: MKNATFYLLDNDTTVDGLSAVEQLVCEIAAERWRSGKRVLIACEDEKQAYRLDEALWARPAESFVPHNLAGEGPRGGAPVEIAWPQKRSSSRRDILISLRTSFADFATAFTEVVDFVPYEDSLAQLARERYKAYRVAGFNLNTATWK
B6: χ K124M (natural protein)
chain: MKNATFYLLDNDTTVDGLSAVEQLVCEIAAERWRSGKRVLIACEDEKQAYRLDEALWARPAESFVPHNLAGEGPRGGAPVEIAWPQKRSSSRRDILISLRTSFADFATAFTEVVDFVPYEDSLMQLARERYKAYRVAGFNLNTATWK
B7: χ Y131A (natural protein)
chain: MKNATFYLLDNDTTVDGLSAVEQLVCEIAAERWRSGKRVLIACEDEKQAYRLDEALWARPAESFVPHNLAGEGPRGGAPVEIAWPQKRSSSRRDILISLRTSFADFATAFTEVVDFVPYEDSLKQLARERAKAYRVAGFNLNTATWK

This test deals with T1, single-stranded DNA-binding protein …. Put plainly: AUC.
Consider B1, for which the Ka was 290000 M⁻¹.
On to B2, for which the Ka came to 90000 M⁻¹.
Molecule B3 showed a Ka of 210000 M⁻¹.
B4 displayed a Ka of 340000 M⁻¹.
On to B5, for which the Ka was found to be 21000 M⁻¹.
Under B6 stands 60000 M⁻¹.
B7 had a Ka of 48000 M⁻¹.
